Measured values published in US20120115785.

Molecular target: β-actin of pulmonary artery endothelial cells (PAEC), Q6QAQ1

B1: eNOS of pulmonary artery endothelial cells (PAEC) (protein)
chain: GNLKSVGQEPGPPCGLGLGLGLGLCGKQGPATPAPEPSRAPAPATPHAPEHSPAPNSPTLTRPPEGPKFPRVKNWEVGSITYDTLCAQSQQDGPCTPRRCLGSLVLPRKLQSRPSPGPPPAEQLLSQARDFINQYYSSIKRSGSQAHEERLQEVEAEVATTGTYHLGESELVFGAKQAWRNAPRCVGRIQWGKLQVFDARDCSSAQEMFTYICNHIKYATNRGNLRSAITVFPQRTPGRGDFRIWNSQLVRYAGYRQQDGSVRGDPANVEITELCIQHGWTPGNGRFDVLPLLLQAPDEPPELFALPPELVLEVPLEHPTLEWFAALGLRWYALPAVSNMLLEIGGLEFPAAPFSGWYMSTEIGTRNLCDPHRYNILEDVAVCMDLDTRTTSSLWKDKAAVEINLAVLHSYQLAKVTIVDHHAATASFMKHLENEQKARGGCPADWAWIVPPISGSLTPVFHQEMVNYVLSPAFRYQPDPWKGSAAKGTGIARKKTFKEVANAVKISASLMATVMPKRVKASILYASETVRAQSYAQQLGRLFRKAFDPRVLCMDEYDVVSLEHETLVLVVTSTFGNGDPPENGESFAAALMEMSGPYNGSPRPEQHRSYKIRFNSVSCSDPLVSSWRRKRKESSNTDSAGALGTLRFCVFGLGSRAYPHFCAFARAVDTRLEELGGERLLQLGQGDELCGQEEAFRGWAQAAFQASCETFCVGEDAKAAARDIFSPKRSWKRQRYRLSAQVEGLQLLPGLVHVHRRKMFQATVLSVENLQSSKSTRATILVRLDTEGQEGLQYQPGDHIGICPPNRTGLVEALLSRVEDPTPPTESVGVEQLEKGSPGGPPPSWVRDPRLPPYTLRQALTFFLDITSPPSPRLLRVLSTLAEEPSEQQELETLSQDPRRYEEWKWFRCPTLLEVLEQFPSVALPTPLLLTQLALLQPRYYSVSSAPSTYPGEIHPTVAVLAYRTQDGLGPLHYGVCSTWLGQLKPGDPVPCFIRAAPSFRLPPDPSLPCILVGPGTGIAPFRGFWQERLHDIESKGLQPAPMTLVFGCRCSQLDHLYRDEVQDAQQRGVFGRVLTAFSREPDSPKTYVQDILRTELAAEVHRVLCLERGHMFVCGDVTMATSVLQTVQRILATEGNMELDEAGDVIGVLRDQQRYHEDIFGLTLRTQEVTSRIRTQSFSLQERHLRGAVPWTFDPPGPDTPGP
For B1, the “eNOS activity in PAEC after β-actin siRNA” value was “reducing β-actin availability prevented hyperoxia-induced increase in eNOS activity”.
